The record followed here is US7709513B2, “Benzooxazol-2-one derivatives as lipase and phospholipase inhibitors” (Sanofi-Aventis, priority 2005, dated 2010).

The target of the experiment is T1, endothelial lipase (EL) (Homo sapiens, UniProt Q9Y5X9).
T1 construct: made in house; host or cells: recombinant cell lines (CHO, HEK293); concentrated conditioned medium used as enzyme solution
T1 sequence (Q9Y5X9 21-500): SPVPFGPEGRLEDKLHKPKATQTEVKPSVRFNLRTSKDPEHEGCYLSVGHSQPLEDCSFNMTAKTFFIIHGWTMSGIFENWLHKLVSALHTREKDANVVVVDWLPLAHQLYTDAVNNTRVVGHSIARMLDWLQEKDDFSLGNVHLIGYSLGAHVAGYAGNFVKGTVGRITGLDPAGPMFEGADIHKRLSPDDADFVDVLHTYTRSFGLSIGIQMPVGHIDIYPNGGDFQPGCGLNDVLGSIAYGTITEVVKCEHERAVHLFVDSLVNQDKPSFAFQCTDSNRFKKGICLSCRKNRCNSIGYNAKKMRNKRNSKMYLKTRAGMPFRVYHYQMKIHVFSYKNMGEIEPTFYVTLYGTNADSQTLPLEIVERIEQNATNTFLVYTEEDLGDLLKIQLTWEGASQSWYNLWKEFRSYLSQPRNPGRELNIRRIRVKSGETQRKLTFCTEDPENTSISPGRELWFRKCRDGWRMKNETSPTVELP
The experiment is described as follows: Further EL inhibition assay. The experiment is classed as biochemical. The conditions noted are these: Bodipy-labelled phospholipid substrate, 37° C., 90 minutes, HPTLC fluorescence readout; EL from conditioned medium of recombinant cell lines (CHO, HEK293). From the text: EL is released as secretory protein in high concentration into cell culture medium (conditioned medium) by recombinant cell lines (CHO, HEK293). This is employed as enzyme solution after concentration.
The phospholipase-specific substrate 1,2-bis(4,4-difluoro-5,7-dimethyl-4-bora-3a,4a-diaza-s-indacene-3-undecanoyl)-sn-glycero-3-phosphocholine, (manufacturer Molecular Probes) is used to characterize the enzymatic activity of endothelial lipase and the effect of inhibitors. Hydrolysis of the A1 ester linkage of this phospholipid by the enzyme liberates the fluorescent dye Bodipy which can be detected after separation by thin-layer chromatography on an HPTLC plate (silica gel 60, Merck) or directly in the reaction vessel by measuring the fluorescence.
The substrate solution is prepared by dissolving 100 μg of 1,2-bis(4,4-difluoro-5,7-dimethyl-4-bora-3a,4a-diaza-s-indacene-3-undecanoyl)-sn-glycero-3-phospho-choline (manufacturer Molecular Probes) in 100 μl of DMSO and taking up in 2.4 mg of tripalmitin (Sigma) in 393 μl of chloroform which comprises 20 mg/ml DOP-choline (1,2-dioleoyl-sn-glycero-3-phosphocholine). 39.3 μl of this lipid mixture are transferred into a fresh reaction vessel, and the solvent is evaporated off. […] After evaporation of the eluent, the plate is read in a fluorescence scanner. […]

Each structure is given as a SMILES string.

A word on the IC50: it is the concentration that inhibits the measured activity by half. Regarding `CCCCCCNC(=O)n1c(=O)oc2ccccc21` [Example 6, 2-Oxobenzooxazole-3-hexylcarboxamide], the half-inhibitory concentration (IC50) is 0.02 µM.
